# Measured values: US7829063B2, “Development of molecular imaging probes for carbonic anhydrase-IX using click chemistry” (Siemens Medical Solutions USA, Inc., priority 2007, dated 2010)
# Molecular target: CA-IX (Homo sapiens, UniProt Q16790)
# Assay: Binding affinity (Kd) determination for CA-IX inhibitors, DNSA fluorescence competition assay, Scatchard plots
# Settings: read-out: Kd (nM) CA-IX; Table 3
row,Compound,Kd
1,COC(=O)[C@H](CSCc1cccc(OCCF)c1)NC(=O)Cn1cc(COc2ccc3nc(S(N)(=O)=O)sc3c2)nn1,10 nM
2,COC(=O)[C@H](COCc1cccc(OCCF)c1)NC(=O)Cn1cc(COc2ccc3nc(S(N)(=O)=O)sc3c2)nn1,11 nM
3,NS(=O)(=O)c1nc2ccc(OCc3cn(CC(=O)N[C@@H](COCc4cccc(OCCF)c4)C(=O)O)nn3)cc2s1,5 nM
4,NS(=O)(=O)c1nc2ccc(OCc3cn(CC(=O)N[C@@H](COCc4cccc(OCC(O)CF)c4)C(=O)O)nn3)cc2s1 (some centres unmarked),5 nM
5,NS(=O)(=O)c1nc2ccc(OCc3cn(CC(=O)N[C@H](CSCc4cccc(OCc5cn(C(CO)CF)nn5)c4)C(=O)O)nn3)cc2s1 (some centres unmarked),5 nM
6,"NS(=O)(=O)c1nc2ccc(OCc3cn(CC(=O)NC(C[S+]([O-])Cc4cccc(OCCF)c4)C(=O)O)nn3)cc2s1 (single isomer, unassigned) [VM2-128B]",2.5 nM
7,COC(=O)[C@@H](CSCc1cccc(OCCN=[N+]=[N-])c1)NC(=O)Cn1cc(COc2ccc3nc(S(N)(=O)=O)sc3c2)nn1,10 nM
8,"NS(=O)(=O)c1nc2ccc(OCc3cn(CC(=O)NC(C[S+]([O-])Cc4cccc(OCCF)c4)C(=O)O)nn3)cc2s1 (single isomer, unassigned) [VM2-128C]",5 nM
